Assay results taken from BindingDB's records for 15454240.

Chains of the proteins cited; added tags and fusions are not shown.
UniProt Q9D6N1, whole entry, looked up: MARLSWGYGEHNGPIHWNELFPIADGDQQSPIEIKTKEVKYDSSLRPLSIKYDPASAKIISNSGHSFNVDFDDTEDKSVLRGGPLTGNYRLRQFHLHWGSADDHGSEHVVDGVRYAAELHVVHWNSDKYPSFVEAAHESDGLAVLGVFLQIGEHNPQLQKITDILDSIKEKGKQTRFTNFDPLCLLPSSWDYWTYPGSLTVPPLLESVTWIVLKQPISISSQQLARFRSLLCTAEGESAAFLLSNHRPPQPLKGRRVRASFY

Biological target: Carbonic anhydrase 13 (Mus musculus, UniProt Q9D6N1)

For `[N-]=[N+]=N`, the Ki was 4.8 mM.
